Literature values, collected in patent US10912809B2, “Enhancer for catechin uptake in enterocytes” (AMOREPACIFIC CORPORATION, priority 2016, dated 2021).

Conditions: generally known; background art

Substance: catechin
- absorbed at a level of intake in the guts: less than 2%
